These are literature values, as cited in US12351561B2, “Crystalline (2S,4R)-5-(5'-chloro-2'-fluoro-[1,1'-biphenyl]-4-yl)-2-(ethoxymethyl)-4-(3-hydroxyisoxazole-5-carboxamido)-2-methylpentanoic acid and uses thereof” (THERAVANCE BIOPHARMA R&D IP, LLC, priority 2016, dated 2025).

By UniProt entry, the sequences of proteins in these tests, tags left out. Where a name states a change or a piece, a line headed by the entry shows the natural chain unless it says otherwise.
UniProt P08473: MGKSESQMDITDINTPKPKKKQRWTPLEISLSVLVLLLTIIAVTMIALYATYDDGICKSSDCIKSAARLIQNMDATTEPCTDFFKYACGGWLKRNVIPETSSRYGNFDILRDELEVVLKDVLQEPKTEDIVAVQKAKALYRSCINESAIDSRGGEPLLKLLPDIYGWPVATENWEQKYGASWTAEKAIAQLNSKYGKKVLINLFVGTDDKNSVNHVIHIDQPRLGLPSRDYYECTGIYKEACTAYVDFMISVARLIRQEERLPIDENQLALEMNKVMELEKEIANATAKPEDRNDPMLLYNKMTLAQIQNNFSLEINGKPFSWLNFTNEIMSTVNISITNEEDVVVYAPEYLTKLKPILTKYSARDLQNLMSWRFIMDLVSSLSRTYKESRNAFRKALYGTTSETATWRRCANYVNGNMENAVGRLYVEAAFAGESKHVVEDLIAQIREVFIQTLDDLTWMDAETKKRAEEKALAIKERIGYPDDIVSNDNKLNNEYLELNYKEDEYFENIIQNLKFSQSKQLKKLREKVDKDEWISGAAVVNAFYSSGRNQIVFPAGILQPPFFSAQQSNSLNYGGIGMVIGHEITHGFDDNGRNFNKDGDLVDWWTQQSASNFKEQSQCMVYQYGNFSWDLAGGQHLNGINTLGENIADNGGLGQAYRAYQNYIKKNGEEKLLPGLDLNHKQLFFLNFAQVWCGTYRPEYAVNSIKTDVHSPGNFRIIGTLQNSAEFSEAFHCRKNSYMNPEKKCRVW

Molecules are shown by their SMILES.

For this data set, the target named is NEP (Homo sapiens, UniProt P08473). As to conditions: cited from earlier work.

Consider `CCOC(=O)[C@H](C)C[C@@H](Cc1ccc(-c2ccccc2)cc1)NC(=O)CCC(=O)O` [sacubitril], for which the “level of cGMP (target engagement) at 24 h postdose” value is “not elevated”.
